# Molecular target: Adenosine receptor A2a (Rattus norvegicus, UniProt P30543)
# Protein sequences, listed by entry. Tags and fused reporters are not part of them.
# UniProt P30543, whole entry: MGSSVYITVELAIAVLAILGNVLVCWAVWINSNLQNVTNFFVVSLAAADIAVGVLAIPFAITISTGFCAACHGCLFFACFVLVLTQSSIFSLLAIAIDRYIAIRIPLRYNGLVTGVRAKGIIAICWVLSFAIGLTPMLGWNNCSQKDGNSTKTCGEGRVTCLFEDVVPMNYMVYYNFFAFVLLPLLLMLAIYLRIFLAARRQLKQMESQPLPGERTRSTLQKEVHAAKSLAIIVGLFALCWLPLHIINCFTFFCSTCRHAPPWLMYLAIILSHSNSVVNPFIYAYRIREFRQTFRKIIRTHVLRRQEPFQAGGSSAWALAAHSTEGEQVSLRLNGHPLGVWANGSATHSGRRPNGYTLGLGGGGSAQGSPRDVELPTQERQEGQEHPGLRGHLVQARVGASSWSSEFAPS
# Experiment: Inhibition of [3H]- NECA binding to adenosine receptor A2A
smiles,measurement,value
Nc1nc(Cl)nc2c1ncn2[C@@H]1O[C@H](CO)[C@@H](O)[C@H]1O,Ki,76 nM
